Values quoted from earlier work as cited in PMC3074252 (Journal of medicinal chemistry, 2011).

Details: ALS patients; cited from earlier work

## Nc1nc2ccc(OC(F)(F)F)cc2s1 [riluzole]
  extension of median survival: 2–3 months
